Assay results from patent US7422887B2, “Phospholipase A2 and gene thereof” (dated 2008).

The chains behind the UniProt entries cited, without tags or fusion partners. Where a name states a change or a piece, a line headed by the entry shows the natural chain unless it says otherwise.
UniProt Q86XP0: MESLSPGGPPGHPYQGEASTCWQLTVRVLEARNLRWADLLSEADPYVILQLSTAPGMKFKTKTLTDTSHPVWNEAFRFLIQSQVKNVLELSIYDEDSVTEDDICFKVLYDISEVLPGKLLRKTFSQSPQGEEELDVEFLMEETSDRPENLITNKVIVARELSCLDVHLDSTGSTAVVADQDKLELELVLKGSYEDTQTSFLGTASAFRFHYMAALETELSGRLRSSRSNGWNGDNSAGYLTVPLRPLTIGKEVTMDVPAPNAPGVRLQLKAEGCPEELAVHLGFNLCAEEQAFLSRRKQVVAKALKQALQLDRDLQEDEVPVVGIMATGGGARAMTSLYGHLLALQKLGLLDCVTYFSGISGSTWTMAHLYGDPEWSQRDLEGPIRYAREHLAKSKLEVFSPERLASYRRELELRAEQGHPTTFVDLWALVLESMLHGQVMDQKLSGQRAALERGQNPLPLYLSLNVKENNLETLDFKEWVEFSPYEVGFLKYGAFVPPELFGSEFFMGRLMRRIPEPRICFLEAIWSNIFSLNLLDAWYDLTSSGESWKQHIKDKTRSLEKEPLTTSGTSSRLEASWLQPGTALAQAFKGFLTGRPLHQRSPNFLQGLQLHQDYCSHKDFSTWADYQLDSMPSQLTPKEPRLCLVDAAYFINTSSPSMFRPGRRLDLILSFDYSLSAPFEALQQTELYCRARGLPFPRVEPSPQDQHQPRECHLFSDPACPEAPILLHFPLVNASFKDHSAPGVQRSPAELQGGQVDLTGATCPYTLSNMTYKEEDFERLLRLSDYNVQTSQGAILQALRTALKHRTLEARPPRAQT
UniProt P47712: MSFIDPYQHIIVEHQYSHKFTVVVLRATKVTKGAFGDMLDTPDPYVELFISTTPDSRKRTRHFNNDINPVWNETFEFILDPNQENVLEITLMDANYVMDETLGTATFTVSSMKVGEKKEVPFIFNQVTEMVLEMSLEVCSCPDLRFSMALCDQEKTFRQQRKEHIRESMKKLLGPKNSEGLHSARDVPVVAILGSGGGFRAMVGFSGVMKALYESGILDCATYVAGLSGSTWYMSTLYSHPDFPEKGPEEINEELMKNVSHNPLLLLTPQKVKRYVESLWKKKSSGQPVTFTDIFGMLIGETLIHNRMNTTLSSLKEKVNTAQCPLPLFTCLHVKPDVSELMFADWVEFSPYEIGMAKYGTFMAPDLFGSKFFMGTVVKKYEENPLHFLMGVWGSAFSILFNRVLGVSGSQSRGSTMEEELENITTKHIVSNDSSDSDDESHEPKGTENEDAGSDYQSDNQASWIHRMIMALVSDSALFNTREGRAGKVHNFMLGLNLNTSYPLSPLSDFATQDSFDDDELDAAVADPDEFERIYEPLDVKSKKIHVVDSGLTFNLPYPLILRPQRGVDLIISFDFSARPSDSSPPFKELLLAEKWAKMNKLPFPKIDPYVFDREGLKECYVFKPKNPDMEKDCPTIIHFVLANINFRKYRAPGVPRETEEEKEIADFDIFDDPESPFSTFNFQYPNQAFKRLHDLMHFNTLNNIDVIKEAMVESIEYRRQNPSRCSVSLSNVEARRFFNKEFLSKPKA

Experiments:
GS21015 = GS21015 (Homo sapiens, UniProt Q86XP0, P10T); assay: Inhibitory action on phospholipase A2 activity of GS21015 (release of [14C]arachidonic acid from 1-palmitoyl-2-arachidonyl-phosphatidylcholine)
cPLA2α = cPLA2α (Homo sapiens, UniProt P47712); assay: Inhibitory action on phospholipase A2 activity of cPLA2α (same method as for GS21015)

Substance: arachdinyl trifluoromethyl ketone
- IC50 (GS21015): > 45 µM
- IC50 (cPLA2α): < 10 µM
